We go through two compounds from US12565505B2, “mTORC modulators and uses thereof” (Aeovian Pharmaceuticals, Inc., priority 2019, dated 2026).

Structures are written as SMILES.

For assay [1], the target named is mTORC2 (Homo sapiens, UniProt P42345+P62942). In words: Inhibition assay for mTORC2: phosphorylation of pAkt at Ser473, AlphaLISA SureFire in PC3 cells. To be noted: 24 hours treatment, analogs substituted at C40 and C16 (C16 diastereomer mixtures not isolated). In kind it is cell-based. A general note: Alpha assays give light when donor and acceptor beads are brought close together.

Assay [2] has as its target mTORC1 (Homo sapiens, UniProt P42345+P62942). In words: Inhibition assay for mTORC1: phosphorylation of pS6K at Thr389, AlphaLISA SureFire in PC3 cells. The settings on record: 24 hours treatment, analogs substituted at C40 and C16 (C16 diastereomer mixtures not isolated). The assay is classed as cell-based.

For the compound `CO[C@@H]1C[C@H](C[C@@H](C)[C@@H]2CC(=O)[C@H](C)/C=C(\C)[C@@H](O)[C@@H](OC)C(=O)[C@H](C)C[C@H](C)/C=C/C=C/C=C(\C)C(OCCCO)C[C@@H]3CC[C@@H](C)[C@@](O)(O3)C(=O)C(=O)N3CCCC[C@H]3C(=O)O2)CC[C@H]1OCCCO` (stereo partly drawn), in assay [1], the “pIC50 mTORC2” value is given as “A (PIC50 for mTORC2 of <5 as A)”.

As to `CO[C@@H]1C[C@H](C[C@@H](C)[C@@H]2CC(=O)[C@H](C)/C=C(\C)[C@@H](O)[C@@H](OC)C(=O)[C@H](C)C[C@H](C)/C=C/C=C/C=C(\C)C(OC[C@@H](C)O)C[C@@H]3CC[C@@H](C)[C@@](O)(O3)C(=O)C(=O)N3CCCC[C@H]3C(=O)O2)CC[C@H]1OCCCO` (stereo partly drawn), the “pIC50 mTORC1” value in assay [2] is reported as “B (8.5 to 9.5 as B)”. For the same compound, the “pIC50 mTORC2” value in assay [1] is reported as “A (PIC50 for mTORC2 of <5 as A)”.
